Experimental data taken from US20020076827A1, “Methods for diagnosing thyroid conditions and for monitoring thyroxine therapy” (priority 2000, published 2002).

How the values were obtained:
[1] = Stability of TSH in urine and serum; assay type: physicochemical; details: room temperature and refrigerator temperature, BioDx stabilizing solution added
Experimental: In the laboratory, those urines were centrifuged at 1,000 g for 10 min to remove particulate matter and volume, pH and specific gravity determined. For storage, a proprietary mixture containing buffer and preservatives (BioDx buffer) was added. This solution was shown not to interfere with determinations. Specimens from both studies were stored similarly at −20 degrees Centigrade.
The stability of TSH in urine and serum was determined at room temperature, 4 C. and −20 C. BioDx stabalizing solution was added to each sample (FIG. 3). […] In fact, more differences were attributable to the instability of the instrument than the samples.

[2] = Stability of urine standard sub-pools measured monthly; assay type: physicochemical; details: 2 ml vials stored at -20 degrees Centigrade
Experimental: The BioDx urinary standards have precision coefficients similar to those reported by Abbott for their serum standards. In the second study, a standard pool was established by collecting urine from two volunteers who were judged to be normal by blood measurements of TSH and thyroid hormones. […] These sub-pools were aliquoted into 2 ml vials and stored as above.

TSH: Human thyroid stimulating hormone, a glycoprotein of two subunits secreted by the pituitary gland
stability of TSH [1]: stable for over a year
concentration in urine standard sub-pools over time [2]: unchanged for over a year
